One test has as its target T1, Human complement C3 (Homo sapiens, UniProt P01024).
T1 construct: purchased ProSpec PRO-2684
Description: SPR (LSPR) binding to immobilized human complement C3.

The chains behind the UniProt entries cited, without tags or fusion partners. Residues count along the entry.
UniProt P01024, 23-1663: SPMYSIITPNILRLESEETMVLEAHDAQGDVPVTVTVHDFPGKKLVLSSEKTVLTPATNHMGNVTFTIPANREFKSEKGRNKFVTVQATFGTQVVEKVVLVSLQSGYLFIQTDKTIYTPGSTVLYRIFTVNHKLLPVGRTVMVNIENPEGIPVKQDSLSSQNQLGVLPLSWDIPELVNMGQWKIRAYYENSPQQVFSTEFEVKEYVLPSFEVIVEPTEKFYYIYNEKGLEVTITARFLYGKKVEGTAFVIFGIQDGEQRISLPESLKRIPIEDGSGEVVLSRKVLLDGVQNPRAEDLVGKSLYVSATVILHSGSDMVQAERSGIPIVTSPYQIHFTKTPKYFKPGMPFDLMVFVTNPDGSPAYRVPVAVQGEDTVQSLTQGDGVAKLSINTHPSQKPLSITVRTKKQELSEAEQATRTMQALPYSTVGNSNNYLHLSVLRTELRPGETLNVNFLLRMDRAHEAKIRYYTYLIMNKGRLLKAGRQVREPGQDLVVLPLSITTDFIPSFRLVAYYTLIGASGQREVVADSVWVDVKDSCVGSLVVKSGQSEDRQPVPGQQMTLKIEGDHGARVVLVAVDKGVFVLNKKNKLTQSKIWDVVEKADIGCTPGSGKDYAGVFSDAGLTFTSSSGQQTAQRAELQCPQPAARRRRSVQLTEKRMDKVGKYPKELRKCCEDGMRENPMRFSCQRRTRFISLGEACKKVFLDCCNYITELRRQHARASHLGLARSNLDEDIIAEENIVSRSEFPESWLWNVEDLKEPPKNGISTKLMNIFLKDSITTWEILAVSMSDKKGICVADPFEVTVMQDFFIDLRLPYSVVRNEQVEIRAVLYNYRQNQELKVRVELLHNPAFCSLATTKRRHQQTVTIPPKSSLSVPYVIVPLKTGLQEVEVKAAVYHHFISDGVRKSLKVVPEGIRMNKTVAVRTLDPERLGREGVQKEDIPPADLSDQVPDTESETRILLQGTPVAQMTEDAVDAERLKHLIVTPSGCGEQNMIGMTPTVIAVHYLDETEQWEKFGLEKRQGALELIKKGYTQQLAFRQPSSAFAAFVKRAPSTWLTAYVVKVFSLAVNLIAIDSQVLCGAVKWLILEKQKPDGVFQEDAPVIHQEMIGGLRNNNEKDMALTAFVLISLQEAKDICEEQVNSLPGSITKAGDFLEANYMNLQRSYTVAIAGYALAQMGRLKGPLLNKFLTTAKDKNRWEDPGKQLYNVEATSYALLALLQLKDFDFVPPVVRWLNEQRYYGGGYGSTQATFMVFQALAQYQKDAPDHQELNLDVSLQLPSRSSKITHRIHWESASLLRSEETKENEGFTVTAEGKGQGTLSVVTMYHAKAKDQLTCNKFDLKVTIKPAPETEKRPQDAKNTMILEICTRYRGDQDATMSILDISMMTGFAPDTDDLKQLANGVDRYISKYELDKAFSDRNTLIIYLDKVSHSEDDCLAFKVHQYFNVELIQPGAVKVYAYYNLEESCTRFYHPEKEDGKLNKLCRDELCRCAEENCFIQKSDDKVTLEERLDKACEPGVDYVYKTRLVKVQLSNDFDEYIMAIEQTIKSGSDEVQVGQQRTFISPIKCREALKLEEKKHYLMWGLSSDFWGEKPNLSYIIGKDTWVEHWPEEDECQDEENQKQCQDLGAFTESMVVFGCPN
UniProt P01026, 25-1663: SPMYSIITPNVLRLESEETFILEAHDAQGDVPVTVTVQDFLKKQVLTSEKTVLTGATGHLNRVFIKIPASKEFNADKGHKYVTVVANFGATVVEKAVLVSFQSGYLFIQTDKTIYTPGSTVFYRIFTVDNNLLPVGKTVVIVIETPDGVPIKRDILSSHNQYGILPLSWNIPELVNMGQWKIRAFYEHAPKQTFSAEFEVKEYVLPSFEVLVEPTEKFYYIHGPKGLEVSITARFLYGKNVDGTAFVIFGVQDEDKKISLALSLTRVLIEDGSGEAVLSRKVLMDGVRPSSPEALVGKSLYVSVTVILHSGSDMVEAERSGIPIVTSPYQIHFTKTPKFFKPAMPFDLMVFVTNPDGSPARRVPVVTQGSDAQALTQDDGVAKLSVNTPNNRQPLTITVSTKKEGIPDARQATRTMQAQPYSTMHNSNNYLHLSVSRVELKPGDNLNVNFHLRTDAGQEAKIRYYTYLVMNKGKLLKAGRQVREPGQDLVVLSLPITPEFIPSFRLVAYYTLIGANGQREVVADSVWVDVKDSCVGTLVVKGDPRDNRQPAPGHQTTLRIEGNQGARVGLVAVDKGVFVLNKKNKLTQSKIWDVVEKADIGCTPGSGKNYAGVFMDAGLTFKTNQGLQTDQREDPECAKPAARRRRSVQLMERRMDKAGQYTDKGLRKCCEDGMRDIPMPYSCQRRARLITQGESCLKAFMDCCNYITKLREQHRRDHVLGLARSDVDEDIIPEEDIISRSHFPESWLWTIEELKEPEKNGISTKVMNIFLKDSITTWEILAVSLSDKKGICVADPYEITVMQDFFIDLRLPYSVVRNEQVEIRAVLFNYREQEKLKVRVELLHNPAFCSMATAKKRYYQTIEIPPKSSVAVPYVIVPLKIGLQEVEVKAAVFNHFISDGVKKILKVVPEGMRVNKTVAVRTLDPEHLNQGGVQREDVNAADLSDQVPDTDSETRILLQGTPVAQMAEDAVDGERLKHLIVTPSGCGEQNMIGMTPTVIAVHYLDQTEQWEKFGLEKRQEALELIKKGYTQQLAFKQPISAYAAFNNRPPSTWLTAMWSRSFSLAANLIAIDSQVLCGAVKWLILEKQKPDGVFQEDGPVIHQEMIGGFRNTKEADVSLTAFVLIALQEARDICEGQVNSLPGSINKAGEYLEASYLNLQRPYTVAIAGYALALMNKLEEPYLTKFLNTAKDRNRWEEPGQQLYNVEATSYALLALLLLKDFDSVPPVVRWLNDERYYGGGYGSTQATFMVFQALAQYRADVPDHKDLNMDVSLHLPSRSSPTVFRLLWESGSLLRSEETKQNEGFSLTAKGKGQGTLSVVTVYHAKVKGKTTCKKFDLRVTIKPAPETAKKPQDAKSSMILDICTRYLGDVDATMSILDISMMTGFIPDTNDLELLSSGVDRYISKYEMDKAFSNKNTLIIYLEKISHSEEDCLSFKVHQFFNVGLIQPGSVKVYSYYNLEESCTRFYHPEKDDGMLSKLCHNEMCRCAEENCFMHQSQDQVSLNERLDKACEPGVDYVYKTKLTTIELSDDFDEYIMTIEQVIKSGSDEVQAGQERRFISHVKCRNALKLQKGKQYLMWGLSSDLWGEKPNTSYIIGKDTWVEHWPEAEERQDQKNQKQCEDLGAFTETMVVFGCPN

The target of a further test is T2, Rat complement C3 (Rattus norvegicus, UniProt P01026).
T2 construct: purchased ProSpec PRO-2706
Description: SPR (LSPR) binding to immobilized rat complement C3.

With `CC[C@H](C)[C@H](N)C(=O)N[C@H]1CSSC[C@@H](C(=O)N[C@H](C(N)=O)[C@@H](C)O)NC(=O)[C@H](CCCN=C(N)N)NC(=O)[C@H](Cc2cnc[nH]2)NC(=O)[C@H](Cc2cnc[nH]2)NC(=O)CNC(=O)[C@H](Cc2c[nH]c3ccccc23)NC(=O)[C@H](CC(=O)O)NC(=O)[C@H](CCC(N)=O)NC(=O)[C@H](C(C)C)NC(=O)[C@H](C(C)C)NC1=O` [compstatin], the Kd on Human complement C3 is 15.6 µM; on Rat complement C3 it was 95.2 µM.

Usually Kd stands for the equilibrium constant for the complex coming apart. Higher therefore signals a looser complex.

These data come from PMC10870435, “A novel complement C3 inhibitor CP40-KK protects against experimental pulmonary arterial hypertension via an inflammasome NLRP3 associated pathway” (Journal of Translational Medicine, 2024).
